Consider one compound from article PMC11968506, “Toxicokinetics and analytical toxicology of the phenmetrazine-derived new psychoactive substance 3,4-methylenedioxyphenmetrazine studied by means of in vitro systems” (Archives of Toxicology, 2025).

Chains of the proteins cited; added tags and fusions are not shown.
UniProt P05177, whole entry: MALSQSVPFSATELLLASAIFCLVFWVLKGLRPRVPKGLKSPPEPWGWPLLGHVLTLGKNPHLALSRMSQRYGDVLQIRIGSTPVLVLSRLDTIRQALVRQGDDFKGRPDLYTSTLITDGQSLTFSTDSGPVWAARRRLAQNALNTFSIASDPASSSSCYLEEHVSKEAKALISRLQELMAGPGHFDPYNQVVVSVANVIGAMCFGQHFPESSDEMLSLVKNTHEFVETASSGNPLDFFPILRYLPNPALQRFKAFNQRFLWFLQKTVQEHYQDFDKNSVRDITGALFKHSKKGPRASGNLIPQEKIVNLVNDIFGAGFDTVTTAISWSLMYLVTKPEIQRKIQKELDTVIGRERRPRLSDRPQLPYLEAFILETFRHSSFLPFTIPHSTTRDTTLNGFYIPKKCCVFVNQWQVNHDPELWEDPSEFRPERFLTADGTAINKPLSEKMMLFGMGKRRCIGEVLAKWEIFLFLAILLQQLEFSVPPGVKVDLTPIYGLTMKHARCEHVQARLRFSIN

The data set concerns the target CYP1A2 (Homo sapiens, UniProt P05177). The data set can be described thus: CYP inhibition cocktail assay in pHLM, CYP1A2 (phenacetin). Particulars: inhibitor 20 µM, phenacetin 12 µM, pHLM 0.4 mg/mL, 15 min; control without inhibitor = 100%.

With `O=c1cc(-c2ccccc2)oc2c1ccc1ccccc12` [α-Naphthoflavone, alpha-naphthoflavone, reference compound], the CYP1A2 metabolite formation worked out at 7%.
